Results published in patent US7351843B2, “Furancarbonylguanidine derivatives, their preparation and pharmaceutical compositions containing them” (Korea Research Institute of Chemical Technology, priority 2003, dated 2008).

Sequences of proteins named here, by UniProt entry; tags and fusion partners are left off.
UniProt P19634, whole entry: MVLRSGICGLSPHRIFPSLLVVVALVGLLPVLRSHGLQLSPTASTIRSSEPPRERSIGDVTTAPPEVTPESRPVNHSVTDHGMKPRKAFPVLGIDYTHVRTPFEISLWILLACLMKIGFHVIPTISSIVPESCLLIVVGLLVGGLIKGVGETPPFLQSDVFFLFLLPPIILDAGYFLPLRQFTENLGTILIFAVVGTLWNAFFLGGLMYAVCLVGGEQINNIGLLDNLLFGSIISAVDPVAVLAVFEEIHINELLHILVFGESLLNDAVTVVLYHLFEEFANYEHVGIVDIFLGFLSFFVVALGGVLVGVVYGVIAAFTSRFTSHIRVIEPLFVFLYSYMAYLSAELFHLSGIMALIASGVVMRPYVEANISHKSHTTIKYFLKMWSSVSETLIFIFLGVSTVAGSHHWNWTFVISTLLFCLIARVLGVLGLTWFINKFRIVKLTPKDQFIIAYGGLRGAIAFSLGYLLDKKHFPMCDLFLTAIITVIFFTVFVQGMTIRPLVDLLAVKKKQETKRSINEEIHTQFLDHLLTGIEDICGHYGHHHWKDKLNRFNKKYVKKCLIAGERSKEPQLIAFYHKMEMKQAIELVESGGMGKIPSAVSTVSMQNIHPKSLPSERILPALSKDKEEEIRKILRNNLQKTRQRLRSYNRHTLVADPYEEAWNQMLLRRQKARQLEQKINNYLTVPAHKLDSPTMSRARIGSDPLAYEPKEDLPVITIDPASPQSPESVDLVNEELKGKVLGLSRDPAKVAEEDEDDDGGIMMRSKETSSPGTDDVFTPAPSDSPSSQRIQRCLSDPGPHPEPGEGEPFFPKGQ

target: T1, human NHE-1 (Homo sapiens, UniProt P19634); assay: NHE-1 inhibitory effect in PS120/NHE-1 cells (recovery from intracellular acidification, BCECF fluorescence); type: cell-based; details: PS120 cells expressing human NHE-1; 50% inhibition of recovery from intracellular acidification
T1 construct: expressed in transfected cells; host or cells: PS120 cells (derived from CCL39 hamster fibroblasts)
Procedure: Following experiments were performed to investigate NHE-1 inhibitory effect of test samples in cells. Particularly, human NHE-1 was expressed in PS120 cells originated from CCL39. The cells were cultured in DMEM (Dulbecco's modified Eagle's medium) medium supplemented with 10% fetal bovine serum, 1% penicillin/streptomycin (100× solution) and 1% L-glutamine (200 mM aqueous solution). […] Then, the cells were washed once with PBS (phosphate buffer saline) and once again with Na-free buffer (138.2 mM choline chloride, 4.9 mM KCl, 1.5 mM CaCl2.2H2O, 1.2 mM MgSO4.7H2O, 1.2 mM KH2PO4, 15 mM D-glucose, 20 mM HEPES, at pH 7.4). […] In order to eliminate NH4Cl and to wash out BCECF-AM remaining outside of cells, PS120/NHE-1 cells were centrifuged and washed once with Na-free buffer. […] After 4 minutes from the cell addition, fluorescence (Excitation 485/444 nm, Emission 535 nm) was measured with a spectrofluorophotometer ([…]; Molecular Device) for 96-well plate. The measured fluorescent values were converted into pH by using high-K^+/nigericin technique. The acidified cells by NH4Cl prepulse were recovered by the action of NHE-1. […] In the meantime, cariporide was used as a control.

Substance	IC50
[5-(2,5-dimethoxyphenyl)furan-2-ylcarbonyl]guanidine [Example 47]	3.4 µM
[5-(4-aminophenyl)furan-2-ylcarbonyl]guanidine [Example 22]	> 30 µM
[5-(4-fluorophenyl)furan-2-ylcarbonyl]guanidine [Example 3]	17 µM
[5-(4-nitrophenyl)furan-2-ylcarbonyl]guanidine [Example 19]	> 30 µM
